Common to all, as to format: cell-based
Assay [1] addresses Toll-like receptor 4 (Homo sapiens) (UniProt O00206). In words: Activation of TLR4 in PMA-differentiated human THP1-Xblue cells assessed as induction of IL-6 secretion at 0.1 to 25 uM by incubated for 6 hrs ELISA method. Particulars: dose 0.1-25 µM. In general terms: An ELISA detects its analyte on a solid surface through an enzyme-linked reagent.
The target is the same in assay [2]. Put plainly: Agonist activity at human TLR4 in HEK-Blue hTLR4 cells at 0.1 to 25 uM incubated for 18 hrs by SEAP reporter gene based Quanti-blue assay. Particulars: filed as agonist, dose 0.1-25 µM.
The target is the same in assay [3]. Put plainly: Agonist activity at TLR4 in human PBMC assessed as induction of TNF production incubated for 6 hrs by ELISA method. Particulars: filed as agonist, dose 10-25 µM.
For assay [4] the target is unchanged. In words: Activation of TLR4 in PMA-differentiated human THP1-Xblue cells assessed as induction of TNFalpha release at 25 uM incubated for 6 hrs by ELISA method. The following applies: filed as activator.
Assay [5] shares this target. Put plainly: Agonist activity at TLR4 in human PBMC assessed as induction of IL-1beta production incubated for 6 hrs by ELISA method. Particulars: filed as agonist, dose 10-25 µM.

The chains behind the UniProt entries cited, without tags or fusion partners.
UniProt O00206, whole entry: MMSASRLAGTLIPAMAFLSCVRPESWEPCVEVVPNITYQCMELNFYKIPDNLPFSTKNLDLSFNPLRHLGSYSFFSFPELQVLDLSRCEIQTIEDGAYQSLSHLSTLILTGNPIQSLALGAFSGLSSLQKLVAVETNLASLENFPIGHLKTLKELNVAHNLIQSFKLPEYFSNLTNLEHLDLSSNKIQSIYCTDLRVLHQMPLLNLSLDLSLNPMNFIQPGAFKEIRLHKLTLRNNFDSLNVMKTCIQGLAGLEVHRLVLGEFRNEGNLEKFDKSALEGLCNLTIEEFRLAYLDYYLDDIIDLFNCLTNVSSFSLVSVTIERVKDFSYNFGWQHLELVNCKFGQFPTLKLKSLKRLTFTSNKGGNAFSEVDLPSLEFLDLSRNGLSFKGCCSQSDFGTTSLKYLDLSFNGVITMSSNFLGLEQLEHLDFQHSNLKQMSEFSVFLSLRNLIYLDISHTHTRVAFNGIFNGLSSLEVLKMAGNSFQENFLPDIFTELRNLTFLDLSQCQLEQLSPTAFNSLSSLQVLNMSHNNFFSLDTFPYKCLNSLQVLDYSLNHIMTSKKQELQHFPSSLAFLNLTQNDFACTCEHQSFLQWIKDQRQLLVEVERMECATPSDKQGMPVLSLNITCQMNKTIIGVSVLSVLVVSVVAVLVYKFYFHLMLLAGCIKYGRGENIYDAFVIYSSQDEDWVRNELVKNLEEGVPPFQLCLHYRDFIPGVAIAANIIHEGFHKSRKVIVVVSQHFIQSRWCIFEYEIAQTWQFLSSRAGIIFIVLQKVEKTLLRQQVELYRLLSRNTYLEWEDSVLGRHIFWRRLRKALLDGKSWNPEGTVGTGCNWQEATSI

Activity calls are given as the source filed them. The calls are words filed in the database; no cut-off is given here.

For `CCCCCCCCCC(=O)N[C@H]1[C@H](OC(=O)CCCCCCCCC)O[C@H](CO)[C@@H](OP(=O)(O)O)[C@@H]1OC(=O)CCCCCCCCC`, the outcome in assay [1] was inactive. In addition, the result in assay [2] and in assay [4] was Active. For the same molecule, the Activity result in assay [3] and in assay [5] was “Dose-Dependent Effect” throughout.

These data come from ChEMBL document CHEMBL5338725, “New Glucosamine-Based TLR4 Agonists: Design, Synthesis, Mechanism of Action, and In Vivo Activity as Vaccine Adjuvants” (J Med Chem, 2023).
